B1: Alpha-1-antitrypsin, P01009 (parent)
chain: MPSSVSWGILLLAGLCCLVPVSLAEDPQGDAAQKTDTSHHDQDHPTFNKITPNLAEFAFSLYRQLAHQSNSTNIFFSPVSIATAFAMLSLGTKADTHDEILEGLNFNLTEIPEAQIHEGFQELLRTLNQPDSQLQLTTGNGLFLSEGLKLVDKFLEDVKKLYHSEAFTVNFGDTEEAKKQINDYVEKGTQGKIVDLVKELDRDTVFALVNYIFFKGKWERPFEVKDTEEEDFHVDQVTTVKVPMMKRLGMFNIQHCKKLSSWVLLMKYLGNATAIFFLPDEGKLQHLENELTHDIITKFLENEDRRSASLHLPKLSITGTYDLKSVLGQLGITKVFSNGADLSGVTEEAPLKLSKAVHKAVLTIDEKGTEAAGAMFLEAIPMSIPPEVKFNKPFVFLMIEQNTKSPLFMGKVVNPTQK
B2: Tyrosine-protein kinase JAK1, P23458 (parent)
chain: MQYLNIKEDCNAMAFCAKMRSSKKTEVNLEAPEPGVEVIFYLSDREPLRLGSGEYTAEELCIRAAQACRISPLCHNLFALYDENTKLWYAPNRTITVDDKMSLRLHYRMRFYFTNWHGTNDNEQSVWRHSPKKQKNGYEKKKIPDATPLLDASSLEYLFAQGQYDLVKCLAPIRDPKTEQDGHDIENECLGMAVLAISHYAMMKKMQLPELPKDISYKRYIPETLNKSIRQRNLLTRMRINNVFKDFLKEFNNKTICDSSVSTHDLKVKYLATLETLTKHYGAEIFETSMLLISSENEMNWFHSNDGGNVLYYEVMVTGNLGIQWRHKPNVVSVEKEKNKLKRKKLENKHKKDEEKNKIREEWNNFSYFPEITHIVIKESVVSINKQDNKKMELKLSSHEEALSFVSLVDGYFRLTADAHHYLCTDVAPPLIVHNIQNGCHGPICTEYAINKLRQEGSEEGMYVLRWSCTDFDNILMTVTCFEKSEQVQGAQKQFKNFQIEVQKGRYSLHGSDRSFPSLGDLMSHLKKQILRTDNISFMLKRCCQPKPREISNLLVATKKAQEWQPVYPMSQLSFDRILKKDLVQGEHLGRGTRTHIYSGTLMDYKDDEGTSEEKKIKVILKVLDPSHRDISLAFFEAASMMRQVSHKHIVYLYGVCVRDVENIMVEEFVEGGPLDLFMHRKSDVLTTPWKFKVAKQLASALSYLEDKDLVHGNVCTKNLLLAREGIDSECGPFIKLSDPGIPITVLSRQECIERIPWIAPECVEDSKNLSVAADKWSFGTTLWEICYNGEIPLKDKTLIEKERFYESRCRPVTPSCKELADLMTRCMNYDPNQRPFFRAIMRDINKLEEQNPDIVSEKKPATEVDPTHFEKRFLKRIRDLGEGHFGKVELCRYDPEGDNTGEQVAVKSLKPESGGNHIADLKKEIEILRNLYHENIVKYKGICTEDGGNGIKLIMEFLPSGSLKEYLPKNKNKINLKQQLKYAVQICKGMDYLGSRQYVHRDLAARNVLVESEHQVKIGDFGLTKAIETDKEYYTVKDDRDSPVFWYAPECLMQSKFYIASDVWSFGVTLHELLTYCDSDSSPMALFLKMIGPTHGQMTVTRLVNTLKEGKRLPCPPNCPDEVYQLMRKCWEFQPSNRTSFQNLIEGFEALLK

This is an account of results in FireProtDB.

The first data set covers variants of B1. Particulars: Homo sapiens; pH 8; Thermal; Fluorescence; Tris-HCl 50 mM; NaCl 50 mM; reversible: no; structure 1QLP; whole UniProt chain shown.
On to F75C, for which the Tm (as a rule, the temperature at which the thermal transition is half complete) came to 57 °C.

In the next data set the parent is B2. The note with it: Homo sapiens; pH 8; Thermal; DSF; TRIS 20 mM; MgCl2 NaCl 1mM 500mM; reversible: Unknown; structure 4L00; whole UniProt chain shown.
In the case of K622A, the melting temperature (Tm) came to 53.3 °C and the “change of melting temperature, mutant - wild type (higher = more stable)” value is 13 °C.
